This is an account of results in PubChem BioAssay (NCATS).

By UniProt entry, the sequences of proteins in these tests, tags left out. Where a name states a change or a piece, a line headed by the entry shows the natural chain unless it says otherwise.
UniProt P46063: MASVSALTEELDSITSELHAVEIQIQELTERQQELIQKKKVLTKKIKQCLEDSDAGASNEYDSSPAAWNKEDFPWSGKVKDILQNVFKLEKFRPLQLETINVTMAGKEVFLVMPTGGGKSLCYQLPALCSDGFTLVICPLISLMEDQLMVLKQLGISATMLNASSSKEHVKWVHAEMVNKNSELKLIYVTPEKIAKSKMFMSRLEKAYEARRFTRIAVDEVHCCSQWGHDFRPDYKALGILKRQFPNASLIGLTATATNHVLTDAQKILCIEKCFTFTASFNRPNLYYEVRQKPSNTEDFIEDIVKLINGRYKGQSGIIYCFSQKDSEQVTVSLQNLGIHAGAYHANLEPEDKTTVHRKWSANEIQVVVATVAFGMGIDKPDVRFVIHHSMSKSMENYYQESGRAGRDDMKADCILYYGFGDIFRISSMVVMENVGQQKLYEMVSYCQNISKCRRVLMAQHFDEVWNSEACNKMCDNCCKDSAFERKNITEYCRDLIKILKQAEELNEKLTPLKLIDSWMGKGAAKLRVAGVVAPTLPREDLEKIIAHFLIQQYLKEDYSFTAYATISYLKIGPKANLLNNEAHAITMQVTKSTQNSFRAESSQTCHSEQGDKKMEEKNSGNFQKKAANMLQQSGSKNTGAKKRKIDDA
UniProt P54132: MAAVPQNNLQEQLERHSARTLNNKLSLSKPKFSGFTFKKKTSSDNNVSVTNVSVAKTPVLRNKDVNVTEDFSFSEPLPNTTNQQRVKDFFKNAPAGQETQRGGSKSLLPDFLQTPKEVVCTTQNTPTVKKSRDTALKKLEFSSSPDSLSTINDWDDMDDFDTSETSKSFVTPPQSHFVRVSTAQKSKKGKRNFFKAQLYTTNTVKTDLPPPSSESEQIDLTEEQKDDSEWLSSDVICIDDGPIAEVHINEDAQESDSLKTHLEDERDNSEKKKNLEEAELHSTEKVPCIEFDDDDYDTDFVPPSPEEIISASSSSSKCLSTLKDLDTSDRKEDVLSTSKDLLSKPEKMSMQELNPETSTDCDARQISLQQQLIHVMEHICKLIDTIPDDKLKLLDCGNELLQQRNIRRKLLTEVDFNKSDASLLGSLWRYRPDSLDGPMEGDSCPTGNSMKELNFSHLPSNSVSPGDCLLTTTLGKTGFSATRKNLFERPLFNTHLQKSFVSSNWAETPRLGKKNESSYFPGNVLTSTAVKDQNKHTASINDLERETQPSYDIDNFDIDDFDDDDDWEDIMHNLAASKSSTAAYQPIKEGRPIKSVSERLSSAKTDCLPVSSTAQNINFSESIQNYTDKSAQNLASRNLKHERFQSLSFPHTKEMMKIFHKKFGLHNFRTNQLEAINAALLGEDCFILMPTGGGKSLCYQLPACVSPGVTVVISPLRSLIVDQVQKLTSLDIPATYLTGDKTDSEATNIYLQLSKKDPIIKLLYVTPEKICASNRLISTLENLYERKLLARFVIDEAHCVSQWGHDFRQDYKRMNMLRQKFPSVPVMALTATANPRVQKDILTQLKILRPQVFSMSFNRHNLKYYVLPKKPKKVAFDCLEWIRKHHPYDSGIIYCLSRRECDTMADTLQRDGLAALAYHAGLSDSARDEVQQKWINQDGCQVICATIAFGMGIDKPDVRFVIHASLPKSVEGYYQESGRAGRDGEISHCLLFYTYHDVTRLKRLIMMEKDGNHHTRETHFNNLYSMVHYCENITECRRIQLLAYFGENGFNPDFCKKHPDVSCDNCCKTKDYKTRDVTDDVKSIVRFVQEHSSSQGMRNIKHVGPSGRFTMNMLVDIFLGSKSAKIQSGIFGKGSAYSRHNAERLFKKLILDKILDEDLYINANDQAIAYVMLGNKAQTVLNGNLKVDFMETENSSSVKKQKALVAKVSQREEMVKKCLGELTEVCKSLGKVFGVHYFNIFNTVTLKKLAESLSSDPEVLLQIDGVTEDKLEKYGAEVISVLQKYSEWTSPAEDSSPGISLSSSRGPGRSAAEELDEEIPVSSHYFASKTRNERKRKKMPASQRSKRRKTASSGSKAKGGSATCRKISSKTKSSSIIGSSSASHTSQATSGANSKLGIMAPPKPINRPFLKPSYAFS
UniProt O75604: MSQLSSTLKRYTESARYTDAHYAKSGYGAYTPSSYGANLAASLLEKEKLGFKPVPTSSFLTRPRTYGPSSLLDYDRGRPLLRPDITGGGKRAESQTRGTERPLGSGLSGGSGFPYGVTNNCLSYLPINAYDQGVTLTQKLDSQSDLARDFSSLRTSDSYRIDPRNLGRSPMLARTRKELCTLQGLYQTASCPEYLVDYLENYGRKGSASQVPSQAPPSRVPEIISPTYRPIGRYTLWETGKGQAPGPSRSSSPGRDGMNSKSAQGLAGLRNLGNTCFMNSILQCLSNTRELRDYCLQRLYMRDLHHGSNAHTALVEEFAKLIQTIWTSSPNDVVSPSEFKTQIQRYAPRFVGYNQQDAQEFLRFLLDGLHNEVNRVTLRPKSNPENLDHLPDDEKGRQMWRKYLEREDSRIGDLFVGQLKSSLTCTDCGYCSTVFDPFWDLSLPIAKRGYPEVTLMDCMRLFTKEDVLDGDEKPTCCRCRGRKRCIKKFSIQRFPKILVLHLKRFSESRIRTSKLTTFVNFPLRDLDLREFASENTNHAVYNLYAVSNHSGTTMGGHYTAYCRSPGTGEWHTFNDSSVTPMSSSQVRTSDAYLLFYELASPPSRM
UniProt P39748, whole entry, looked up: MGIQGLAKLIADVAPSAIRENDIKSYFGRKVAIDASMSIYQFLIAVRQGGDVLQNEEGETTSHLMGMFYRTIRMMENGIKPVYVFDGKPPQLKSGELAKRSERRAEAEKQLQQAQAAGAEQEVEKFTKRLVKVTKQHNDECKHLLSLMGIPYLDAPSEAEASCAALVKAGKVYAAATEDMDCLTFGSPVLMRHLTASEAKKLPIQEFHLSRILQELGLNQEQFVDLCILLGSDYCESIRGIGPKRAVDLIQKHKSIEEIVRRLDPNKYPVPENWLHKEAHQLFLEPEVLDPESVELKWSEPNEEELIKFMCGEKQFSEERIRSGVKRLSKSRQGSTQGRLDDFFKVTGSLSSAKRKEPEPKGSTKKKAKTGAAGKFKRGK
UniProt Q9GZX7: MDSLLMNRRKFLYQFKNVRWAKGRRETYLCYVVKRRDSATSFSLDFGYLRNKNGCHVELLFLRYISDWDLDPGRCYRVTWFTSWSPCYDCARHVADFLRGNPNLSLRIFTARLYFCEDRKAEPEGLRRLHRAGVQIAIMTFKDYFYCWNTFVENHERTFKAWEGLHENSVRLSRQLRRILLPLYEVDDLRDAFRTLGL
UniProt P02791: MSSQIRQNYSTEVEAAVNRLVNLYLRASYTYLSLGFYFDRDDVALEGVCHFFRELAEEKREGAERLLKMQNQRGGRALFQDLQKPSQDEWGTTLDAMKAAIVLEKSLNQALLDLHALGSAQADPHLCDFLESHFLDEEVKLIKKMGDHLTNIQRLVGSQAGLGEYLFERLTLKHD

Where “and” joins values, the source holds several entries; their conditions need not be identical. Identical values can stand only once. For part of these data: Most of the hits are listed elsewhere, so they are rarer here than in the full data. Inconclusive results are not listed. The list shows a part of the results, in another mix than the full data. Calls of active or inactive are those of the source. Unless noted, calls follow the shape of the dose curve; as a rule, active = well fitted curve in the direction sought with a large enough effect; inconclusive = small, poorly fitted or top-dose-only effect, or another doubt; inactive = no such curve, though single readings can be large; an effect the other way counts as inactive or inconclusive.

A short description of assay [1]: qHTS Assay for Lipid Storage Modulators (AID 1519; calls by dose curve; as to activity change, negative = inhibition: % is scaled to controls: 0 for no effect and ±100 for the full control effect). The settings on record: Drosophila S3 cells, BODIPY lipid droplet/cell ratio, laser cytometry, cells loaded with oleic acid. Summed up:
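Cells seeded at 5,000 per well were treated with compounds over a concentration series and loaded with oleic acid (400 uM, as added). Lipid droplet fluorescence (488 nm excitation, 500-530 nm channel) was read by laser-scanning cytometry and normalized to 20 uM Triacsin C.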

Assay [2] in a line: qHTS for differential inhibitors of proliferation of Plasmodium falciparum line GB4 (AID 1816).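 Also: parasite growth measured after 72 h incubation; 0% = vehicle DMSO and -100% = reference inhibitor.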 The settings on record: at 28.7 µM (top of the series). Background: In qHTS, concentration-response curves come from the screen itself.
The nature of assay [3]: qHTS for differential inhibitors of proliferation of Plasmodium falciparum line 3D7 (AID 1876).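 Also: parasite growth measured after three days of culture; 0% = vehicle wells and -100% = reference inhibitor wells.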 The settings on record: P. falciparum 3D7 proliferation inhibition; at 28.7 µM (top of the series).
Assay [4] is described as follows: qHTS for differential inhibitors of proliferation of Plasmodium falciparum line D10 (AID 1877).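 Also: parasites grown with compound for 72 h before DNA staining; plate controls were vehicle wells for no effect and reference inhibitor wells for full effect.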 The settings on record: at 28.7 µM (top of the series).
Assay [5] can be described thus: qHTS for differential inhibitors of proliferation of Plasmodium falciparum line HB3 (AID 1886).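 Also: parasites grown with compound for 72 h before SYBR Green readout; plate controls were vehicle for no effect and reference inhibitor for full effect.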 Particulars: at 28.7 µM (top of the series).
Assay [6] addresses ATP-dependent DNA helicase Q1 (Homo sapiens) (UniProt P46063). Description: qHTS Validation Assay for Inhibitors of RecQ-Like Dna Helicase 1 (RECQ1) (AID 2353).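 Also: plate controls were DMSO vehicle for no effect and enzyme-free control for full effect.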 The settings on record: recombinant RECQ1 helicase DNA unwinding assay; at 25.6 µM (top of the series). Summed up: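 RECQ1T1 50 nM; forked duplex (20 bp + 30-nt ss tails) 200 nM, ATP 2 mM final; pH 8.0, 2 mM MgCl2, 2.5 ug/ml poly(dI-dC); 15 min compound preincubation; discontinuous kinetic read over 2 h at RT.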

Assay [7] has as its target RecQ-like DNA helicase BLM (Homo sapiens) (UniProt P54132). Description: qHTS Validation Assay for Inhibitors of Bloom's syndrome helicase (BLM) (AID 2364).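 Also: plate controls were DMSO vehicle for no effect and enzyme-free control for full effect.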 The settings on record: BLM helicase DNA unwinding, fluorescence, in vitro; at 57.1 µM (top of the series). In short, it runs like this: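 BLM 50 nM in 25 mM Tris-HCl pH 8.0, 5 mM NaCl, 2 mM MgCl2, 1 mM DTT, 0.01% Tween-20, 2.5 ug/ml poly(dI-dC); 15 min cpd preinc, RT. Start: 200 nM forked DNA + 2 mM ATP (final). TAMRA read, 2 reads 2 h apart.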

For assay [8], the target named is Ubiquitin carboxyl-terminal hydrolase 2 (Homo sapiens) (UniProt O75604). Nature of the assay: qHTS Validation Assay for Inhibitors of Ubiquitin-specific Protease USP2a Using CHOP2 as the Reporter (AID 463106).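 Also: plate controls were DMSO for no effect and full inhibition by NEM for full effect.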 The settings on record: USP2a cleavage of CHOP2 reporter, enzymatic; at 38.3 µM (top of the series). Summed up:
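Inhibition is expressed relative to NEM as the full-inhibition control, with concentration-response curves classed by fit quality, magnitude and activity. Enzyme (USP2 core, 10nM) meets 25nM Ub-CHOP2 after compound preincubation; readings are taken at 60min.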

The target of assay [9] is Flap endonuclease 1 (Homo sapiens) (UniProt P39748). Description: qHTS Validation Assay for the Inhibitors of Human Flap endonuclease 1 (FEN1) (AID 488816). Also: % is scaled to controls: 0 for no effect and ±100 for the full control effect. Particulars: FEN1 nuclease activity, fluorogenic DNA substrate; at 57.1 µM (top of the series). In short, it runs like this:
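Steps: add FEN1 (10 nM reagent) or buffer only; pin compounds; hold 15 min at room temperature; start with substrate, 50 nM final; read at 0 and 15 min; correct, normalize and fit a four-parameter Hill curve.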

Assay [10] is described as follows: qHTS Assay for Identifying Gametocytocidal Compounds (AID 743244).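 Also: % is scaled to controls: 0 for no effect and ±100 for the full control effect; actives lower the fluorescent signal which means gametocytes are killed.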 Particulars: P. falciparum 3D7 stage III-V gametocytes, alamarBlue, 72 h; stronger effect = lower value. In short, it runs like this: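 Late gametocytes (III–V), P. falciparum 3D7; 72 h drug, then 24 h alamarBlue; resazurin reduction read by fluorescence.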
The nature of assay [11]: Validation qHTS assay for inhibitors of Activation Induced Cytidine Deaminase (AID): UDG Counterscreen signal (AID 1347427). Also: 0% is about no effect. The settings on record: biochemical UDG counterscreen, fluorescence signal; at 115 µM (top of the series). In short, it runs like this:
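Fluorescence at 560 nm excitation, 665 nm emission reports UDG signal after 250 mM NaOH (2x) addition and 30 min. Enzymes (AID 1 uM, UDG 2 U/mL, at 4/3x) preincubated 10 min with compound, then 4 h with 4x 250 nM DJC20/DJC23 substrate at room temperature.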

Assay [12] concerns the target Single-stranded DNA cytosine deaminase (Homo sapiens) (UniProt Q9GZX7). Nature of the assay: Validation qHTS assay for inhibitors of Activation Induced Cytidine Deaminase (AID): AID signal (AID 1347429). Also: % is scaled to controls: 0 for no effect and ±100 for the full control effect. The settings on record: Recombinant AID, FRET ssDNA deamination with UDG, fluorescence; at 115 µM (top of the series). In short, it runs like this:
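Compounds (final up to 114 uM) preincubated with AID plus UDG; 250 nM DJC20/DJC23 substrate mix (4x stock) added, 4 hr at room temperature, then NaOH, 30 min. Read 1 fluorescence at 540 nm excitation, 590 nm emission.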

The nature of assay [13]: HTS Assay for Allosteric Antagonists of the Human D2 Dopamine Receptor: Hit Validation in HTRF (AID 624455).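 Also: stable D1 dopamine receptor cell line scored for blocking the D1 response; potency is read from the fitted curve at half-maximal effect.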 The settings on record: Cells stably expressing D1 dopamine receptor, inhibition mode. Summed up: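 Inhibition of the D1-mediated response was measured by HTRF. Cells used were a line stably expressing the D1 dopamine receptor.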
(In general: TR-FRET usually uses a lanthanide donor and a delayed reading to cut background.)

In assay [14] the target is Ferritin light chain (Equus caballus) (UniProt P02791). Description: qHTS Validation Assay for Identification of Novel General Anesthetics (AID 2323). Also: % is scaled to controls: 0 for no effect and ±100 for the full control effect. Particulars: horse apoferritin, anesthetic-site fluorescent probe displacement; at 76.9 µM (top of the series). Summed up:
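Competitive displacement of the profluorescent anesthetic 1-AMA (50% saturated, PBS) from 10 uM apoferritin, 10 min, room temperature. Activity is normalized 380/535 nm fluorescence; concentration-response fitted with a four-parameter Hill equation.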

For assay [15], the system named is KB-3-1. Description: Cytotoxic Profiling of Annotated Libraries Using Quantitative High-Throughput Screening (AID 1296008). Also: % is scaled to controls: 0 for no effect and ±100 for the full control effect; nearly all actives have a fitted effect of over 60% in size. Particulars: Five cell lines viability, CellTiter-Glo ATP luminescence, 48-72 h, stronger effect = lower value. In short, it runs like this:
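Compounds were pin-transferred onto cells and incubated 48 or 72 hr at 37 degree Celsius, 95% humidity. CellTiter-Glo was added, plates sat 10 min at room temperature, then ATP-coupled luminescence was imaged as the viability read-out.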
A general note: ATP-based viability assays read luminescence as a measure of living cells.

A short description of assay [16]: S16 Schwann cell viability assay (CellTiter-Glo assay) (AID 624031).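 Also: native untransfected S16 rat Schwann cells; plate controls were DMSO-treated cells for no effect and cell-free wells for full effect; nearly all actives have a fitted effect of over 70% in size.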 Particulars: S16 rat Schwann cells viability, 24 h; at 57.5 µM (top of the series). In short, it runs like this: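 Cells were seeded at 500-750 per well in phenol red-free DMEM with 10% FBS and left overnight. Compounds or DMSO were pinned in, incubation ran 24 h at 37 °C/5% CO2, then CellTiter-Glo reagent was added and luminescence measured.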

Assay [17] is described as follows: S16 Schwann cell PMP22 intronic element firefly luciferase assay (AID 624032).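 Also: plate controls were DMSO for no effect and PTC124 positive control mean for full effect; nearly all actives have a fitted effect of over 30% in size.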 The settings on record: S16 rat Schwann cells, PMP22 element FLuc, 24 h; at 57.5 µM (top of the series). In short, it runs like this:
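Rat S16 Schwann cells stably carrying a PMP22 intronic element-driven Fluc reporter were seeded overnight, then exposed to compounds for 24 h at 37 °C. Luminescence was normalized to PTC124 (positive control) and DMSO (0% activity).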

Assay [18] is described as follows: qHTS assay for small molecule agonists of the antioxidant response element (ARE) signaling pathway (AID 651741; active = well fitted activation curve with a large enough effect in the signal ratio; the % refers to the signal ratio; also: potency is read from the fitted curve at half-maximal effect). In short, it runs like this: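 Reporter: beta-lactamase under ARE, stably in HepG2. Exposure: 16 h, 37 C, compounds delivered in DMSO by pin tool after 5 h cell preincubation. Readout: FRET substrate fluorescence after 2 h at RT.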
Assay [19] in a line: qHTS assay for small molecule agonists of the antioxidant response element (ARE) signaling pathway measured by Nrf2-dependant transcriptional activity (AID 720636; active = well fitted curve in the direction sought with a large enough effect in the repeat runs; an effect the other way counts as inactive or inconclusive; also: potency is read from the fitted curve at half-maximal effect). Particulars: ARE-luc HepG2, Nrf2 luciferase reporter, 16 h. In short, it runs like this:
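First, ARE-luc HepG2 cells attached for 6 hr at 37 C in 1% dialyzed FBS medium. Next, compound or DMSO was added and incubated 16 hr. Finally, ONE-Glo reagent was added and luminescence measured after 30 min.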

For `CC(Cc1ccc(O)cc1)NCC(O)c1cc(O)cc(O)c1` (stereo unspecified), the activity change, negative = inhibition in [1] (at 57.5 µM (top of the series)) is inactive: 2.07%; in [2] it was inactive: -20%; in [4], inactive: -10.7%; in assay [5], inactive: -12.7%; in [6] it was inactive: 3.27%; in [7], inactive: -4.7%. In addition, in assay [12], the activity change, negative = inhibition was inactive: 13.3%. The max response in assay [1] (measured here: cell count channel max response) was 8.19%; in assay [1] (measured here: lipid channel max response), 11%; in assay [10], inactive: 11.6% and inactive: 22.7%. Also, the activity, negative = inhibition in assay [3] is inactive: 0.154%; in assay [8], inactive: 4.01%; in [9], inactive: 0.0214%; in assay [11] it was inactive: 7.55%.

With `CCCN1CCC[C@H](c2cccc(O)c2)C1`, the Potency in assay [13] is active: 5.17 µM.

For the molecule `Cc1nccc2c1[nH]c1ccccc12`, the activity change, negative = inhibition in [14] is inactive: 976%.

As for `O=c1oc2ccccc2c(O)c1Cc1c(O)c2ccccc2oc1=O`, the max response in [15] is inactive: 11.2%.

Turning to `COc1ccc(C[C@H](C)NC[C@@H](O)c2ccc(O)c(NC=O)c2)cc1`, the activity change, negative = cytotoxicity in assay [16] was inactive: -12%. The activity change, negative = inhibition in assay [17] was inactive: -24.4%.

As to `CC(C)(C)c1cc(O)ccc1O`, the Potency in assay [18] was active: 2.73 µM and active: 13.3 µM and active: 10.6 µM; in [19], active: 61.1 µM.
